The target of this assay is Cystic fibrosis transmembrane conductance regulator (Homo sapiens, UniProt P13569, F508DEL). Nature of the assay: Agonist activity at CFTR-deltaF508 mutant expressed in NIH3T3 cells assessed as increase in forskolin-stimulated current. Type of assay: functional, cell-based.

By UniProt entry, the sequences of proteins in these tests, tags left out. Chains listed by the source or under a name are the forms on record and can include a tag or linker.
UniProt P13569, as listed by the source: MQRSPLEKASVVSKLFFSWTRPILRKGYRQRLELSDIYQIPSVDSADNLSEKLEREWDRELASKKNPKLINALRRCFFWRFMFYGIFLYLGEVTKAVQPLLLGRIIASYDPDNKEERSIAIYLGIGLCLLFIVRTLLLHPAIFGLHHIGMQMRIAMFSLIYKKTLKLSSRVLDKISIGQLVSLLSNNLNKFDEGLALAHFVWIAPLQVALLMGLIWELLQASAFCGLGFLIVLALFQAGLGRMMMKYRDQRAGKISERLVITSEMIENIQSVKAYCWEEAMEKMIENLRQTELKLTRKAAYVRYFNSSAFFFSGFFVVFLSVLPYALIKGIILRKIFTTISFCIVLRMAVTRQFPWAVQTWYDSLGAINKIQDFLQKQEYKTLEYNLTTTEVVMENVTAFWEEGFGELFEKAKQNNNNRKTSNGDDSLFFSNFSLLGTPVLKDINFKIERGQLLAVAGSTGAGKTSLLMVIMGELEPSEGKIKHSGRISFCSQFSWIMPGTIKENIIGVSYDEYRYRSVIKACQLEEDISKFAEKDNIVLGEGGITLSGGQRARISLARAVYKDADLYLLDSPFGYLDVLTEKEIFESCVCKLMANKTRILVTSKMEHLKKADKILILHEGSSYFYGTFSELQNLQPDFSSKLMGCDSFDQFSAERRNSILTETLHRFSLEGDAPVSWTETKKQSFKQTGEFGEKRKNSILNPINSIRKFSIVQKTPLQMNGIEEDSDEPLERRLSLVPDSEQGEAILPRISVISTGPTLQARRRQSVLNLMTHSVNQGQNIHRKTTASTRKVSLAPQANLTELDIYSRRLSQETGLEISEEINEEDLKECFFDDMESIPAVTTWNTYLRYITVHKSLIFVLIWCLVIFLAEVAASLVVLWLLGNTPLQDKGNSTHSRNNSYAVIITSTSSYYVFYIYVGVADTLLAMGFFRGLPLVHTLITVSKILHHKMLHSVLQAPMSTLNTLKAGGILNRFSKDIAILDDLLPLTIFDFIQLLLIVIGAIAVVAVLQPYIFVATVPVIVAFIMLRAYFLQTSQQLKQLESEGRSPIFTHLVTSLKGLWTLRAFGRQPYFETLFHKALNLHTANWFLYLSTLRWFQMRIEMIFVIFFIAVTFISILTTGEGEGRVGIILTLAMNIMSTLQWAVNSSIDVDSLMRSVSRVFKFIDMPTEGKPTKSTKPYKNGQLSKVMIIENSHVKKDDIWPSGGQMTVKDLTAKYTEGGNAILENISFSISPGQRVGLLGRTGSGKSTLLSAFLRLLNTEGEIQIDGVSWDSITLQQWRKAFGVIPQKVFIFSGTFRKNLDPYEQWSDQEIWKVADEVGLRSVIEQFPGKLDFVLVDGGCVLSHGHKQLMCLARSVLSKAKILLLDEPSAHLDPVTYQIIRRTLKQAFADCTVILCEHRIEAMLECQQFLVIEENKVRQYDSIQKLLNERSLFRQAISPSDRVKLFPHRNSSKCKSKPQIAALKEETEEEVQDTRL

Molecules are shown by their SMILES. pEC50: −log10 of the molar value.

Consider `O=c1c(-c2ccc(O)cc2)coc2cc(O)cc(O)c12` [GENISTEIN], for which the pEC50 is 5.36.

Values taken from ChEMBL document CHEMBL1155125, “Activation of CFTR by UCCF-029 and genistein” (Bioorg Med Chem Lett, 2008).
